For series [1], the target named is human serum transferrin, P02787.
Series [2] concerns the target T1, recombinant human deoxyribonuclease 1, P24855.
T1 chain: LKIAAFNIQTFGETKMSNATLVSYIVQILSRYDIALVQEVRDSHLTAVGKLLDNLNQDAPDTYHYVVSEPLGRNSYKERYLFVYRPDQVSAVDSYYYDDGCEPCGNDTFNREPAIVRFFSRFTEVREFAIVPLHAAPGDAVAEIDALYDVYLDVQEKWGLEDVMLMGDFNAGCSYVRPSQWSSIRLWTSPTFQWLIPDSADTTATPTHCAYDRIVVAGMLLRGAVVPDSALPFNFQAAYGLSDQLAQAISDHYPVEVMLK

By UniProt entry, the sequences of proteins in these tests, tags left out. Residues count along the entry.
human serum transferrin, P02787, UniProt P02787, 20-698: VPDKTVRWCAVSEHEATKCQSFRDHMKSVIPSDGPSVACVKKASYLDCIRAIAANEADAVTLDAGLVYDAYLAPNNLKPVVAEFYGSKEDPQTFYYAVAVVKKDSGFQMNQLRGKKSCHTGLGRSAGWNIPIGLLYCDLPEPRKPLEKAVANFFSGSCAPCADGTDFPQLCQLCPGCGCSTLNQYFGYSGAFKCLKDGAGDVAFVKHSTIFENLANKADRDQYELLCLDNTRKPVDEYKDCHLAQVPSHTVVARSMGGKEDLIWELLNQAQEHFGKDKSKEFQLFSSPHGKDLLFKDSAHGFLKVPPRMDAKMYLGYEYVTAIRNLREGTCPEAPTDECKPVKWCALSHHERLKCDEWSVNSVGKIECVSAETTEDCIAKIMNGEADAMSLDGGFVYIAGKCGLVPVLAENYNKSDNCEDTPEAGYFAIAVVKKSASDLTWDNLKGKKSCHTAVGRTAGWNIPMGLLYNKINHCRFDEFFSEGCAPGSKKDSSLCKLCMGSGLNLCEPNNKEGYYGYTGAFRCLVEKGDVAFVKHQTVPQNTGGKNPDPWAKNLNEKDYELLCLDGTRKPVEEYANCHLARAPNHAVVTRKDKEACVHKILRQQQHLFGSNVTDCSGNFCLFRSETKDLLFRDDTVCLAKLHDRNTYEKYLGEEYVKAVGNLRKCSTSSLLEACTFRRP

The results in this text go back to patent publication US6916916.

B1: CHO cell sialidase (purified from cell culture fluid of CHO 14.16 cells, 43 kDa) (protein)
chain: MATCPVLQKETLFQTGDYAYRIPALIYLSKQKTLLAFAEKRLTKTDEHADLFVLRRGSYNADTHQVQWQAEEVVTQAYLEGHRSMSPCPLYDKQTRTLFLFFIAVRGQISEHHQLQTGVNVTRLCHITSTDHGKTWSAVQDLTDTTIGSTHQDWATFGVGPGHCLQLRNTAGSLLVPAYAYRKQPPIHAPAPSAFCFLSHDHGSTWELGHFVSQNSLECQVAEVGTGAERVVYLNARSCLGARVQAQSPNSGLDFQDNQVVSKLVEPPKGCHGSVIAFPNPTSKADALDVWLLYTHPTDSRKRTNLGVYLNQKPLDPTTWSAPTLLATGICAYSDLQNMGHGPDGSPQFGCLYESNNYEEIVFLMFTLKQAFPAVFGAQ
Take B1: in series [1], the Km (as a rule, the substrate concentration at which the rate is half of its maximum) turned out to be 4.1 mM. Besides, in series [2], the Michaelis-Menten constant (Km) turned out to be 5.8 mM and the Vmax (usually the rate approached at saturating substrate) was determined as 12 µmol/min/mg.
